Values of other authors in publication PMC10197018 (Pediatric blood & cancer, 2021).

Details: reported ranges ref 45-47, 49; cited from earlier work

CCc1c2c(nc3ccc(OC(=O)N4CCC(N5CCCCC5)CC4)cc13)-c1cc3c(c(=O)n1C2)COC(=O)[C@]3(O)CC [Irinotecan]
extent of metabolic conversion of irinotecan to SN38: 0.016–0.16
